Measured affinities in a library of Ab-14 light chain variants

Target: peptide PDVDLGDISGINAS, taken from heptad repeat 2 (HR2) of SARS-CoV-2 spike.

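These sequences belong to a second round, designed from the earlier measurements on random variants of the parent. Their group label is 14L_En_HC (En: ensemble of fine-tuned language models; HC: hill climbing; a sequence that several methods proposed may carry one label only). In AlphaSeq, yeast of one mating type display the scFv and yeast of the other type display the target. Pairs that bind mate more often; barcode pairs of the diploids are counted by sequencing. A regression on co-assayed BCL2-family reference pairs converts the normalised counts of each replicate to an apparent Kd. There are six technical replicates.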

Each scFv is VH, three GGGGS repeats, VL, as in the parent Ab-14, and differs from it in the CDRs of the light chain only.
VH: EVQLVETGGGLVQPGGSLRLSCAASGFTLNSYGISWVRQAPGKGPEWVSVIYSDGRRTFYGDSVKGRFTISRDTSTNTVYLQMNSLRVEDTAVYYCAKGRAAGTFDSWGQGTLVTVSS
VL: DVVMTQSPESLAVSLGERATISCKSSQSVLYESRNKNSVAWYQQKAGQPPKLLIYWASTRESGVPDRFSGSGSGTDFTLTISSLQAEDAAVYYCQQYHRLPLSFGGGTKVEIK

Variants are written as CDR1, CDR2 and CDR3 of the light chain (limits as in the source). Parent: KSSQSVLYESRNKNSVA, WASTRES, QQYHRLPLS. The read-out is the apparent dissociation constant on a log10 scale (nM): the lower, the stronger. Where no diploid with the target was found in that replicate, the entry reads "nd": below detection, most likely a poor binder, though not proof of it. Background: pairings of all light chain designs with three empty control strains gave a value in 4% of cases (median 2.64, 5th percentile 1.59). Values in that range, when seen in few replicates, are hard to tell from nonspecific mating. Also given: how often the same scFv was detected with the empty control strains. Of ten entries with the parent sequence, four were seen in most replicates (averages 0.34 to 2.37), three in one and three in none, so single entries are noisy. Values of this round are not directly comparable with the first-round values of the same sequences. In the paper, a design with two or fewer of six values counts as a poor binder.

KISQMFYYESINTNSVA, QKSTREE, QDYHRLPLS: 0.76, 0.97, 1.31, 0.83, 0.50, 1.18 (controls 1 of 18).
KISQLVNFEGKGKNSVA, QMSTRES, QQYDRLPLS: 0.09, 0.07, 0.13, -0.08, 0.05, 0.33 (controls 0 of 18).
KIAQSMNLTSHHINSVA, QSETREE, QQYNHLPLS: 1.17, 0.56, 0.78, 1.21, 1.02, 1.01 (controls 1 of 18).
KLRQSTHIESFNKNNVA, EMTNRES, QSYDRLPLS: 0.73, 1.70, 0.89, 0.87, 1.28, 1.72 (controls 1 of 18).
TIGPMLTTESRNKNSVA, GMQTRES, QQYHRLPLS: 0.11, -0.06, -0.08, 0.17, 0.07, 0.09 (controls 0 of 18).
SIYDATAMESRNKNPIA, DVSTRPS, QQYDRLPLS: 0.87, 0.64, 0.43, 0.69, 1.10, 0.68 (controls 0 of 18).
MISGSVMTESRLKNSVA, QTTTRES, QQYDRLPLS: 1.01, 0.99, 0.79, 0.79, 1.14, 0.96 (controls 3 of 18).
TISQMLLMQTSHKNSVA, GEEVRYN, QQYHRLPLS: 1.99, 1.81, 1.51, 1.27, 1.19, 1.55 (controls 0 of 18).
KISSLTLYESVQKNNIA, EMSTRPS, QSYHRLPLS: 0.88, 0.58, 0.75, 0.66, 1.05, 0.94 (controls 1 of 18).
KLSITGLHQSIDKKSIA, ERSTREN, QQYHRLPLS: 0.43, 0.24, 0.34, 0.19, 0.22, 0.66 (controls 1 of 18).
HISQMVMYGSCNMNNVA, QVSTREE, QQYHRLPLS: 0.43, 0.76, 0.19, 0.43, 0.54, 0.59 (controls 1 of 18).
TIGQSVHETTRIKNSVA, HASMRED, QQYDRLPLS: 0.86, 0.76, 0.51, 0.44, 0.22, 1.13 (controls 0 of 18).
KISGYLNKEMKNKNSVA, EMVNRES, QQYDRLPLS: nd, 1.64, 1.66, 2.41, 2.86, 2.45 (controls 0 of 18).
KIGQQVTYESTIKNAIA, QMTTREE, QQYHRLPLS: 0.44, 0.16, 0.17, 0.27, 0.31, 0.19 (controls 1 of 18).
MFSQLFMMGSRNYNSVA, QASTREE, QQYHRLPLI: nd, 0.20, 0.13, 0.29, -0.26, -0.09 (controls 0 of 18).
KLSMSYRYETENKNSIA, ELVTRMS, QQYHRLPLS: 1.25, 1.72, 1.13, 1.83, 1.37, 1.15 (controls 3 of 18).
MISDMGLHDSRIQNSVA, NNSTREA, QQYDRLPLS: nd, nd, nd, nd, nd, nd (controls 0 of 18).
KIGNMVDYMSATHSSVA, QTSTREE, QQYHRLPLS: 0.37, 0.16, 0.28, 0.10, 0.25, 0.41 (controls 3 of 18).
MLGMTVMQGMYSRNNVA, QEETRAE, QQYHHLPLS: 0.23, 0.57, 0.31, 0.19, 0.41, 0.19 (controls 1 of 18).
TISQSMLYLSNLKNSVA, QAETRVS, QQYHRLPIS: 2.11, 1.53, 1.15, 1.22, 0.90, 1.04 (controls 2 of 18).
MISDLTMYGSRTKNSVA, DLSTRGS, QQYHRLPLS: 0.70, 0.60, 0.68, 0.37, 0.47, 0.91 (controls 1 of 18).
TISDVMHMESRNVNNVA, DLVKREK, QQYHRLPLS: -0.38, -0.54, -0.78, -0.74, -0.52, -0.54 (controls 1 of 18).
KITGMWTFENRNRNNIA, EESTRED, QSYHRLPLS: 0.24, 0.02, -0.22, -0.17, -0.08, 0.30 (controls 1 of 18).
QLLMATMQETYQKNSVA, HAETRED, QSYHRLPLS: 0.75, 0.51, 0.66, 0.49, 0.33, 0.56 (controls 0 of 18).
NISESMYFQSRNKSNIA, EMSTRER, QHYHRLPLS: 1.93, 1.84, 1.78, 1.94, 3.26, 2.38 (controls 0 of 18).
KLSVSTSYLSVNKNSVA, EMSTRGS, QQYDRLPLS: 1.28, 1.04, 0.88, 0.97, 0.55, 0.82 (controls 1 of 18).
KLGGVTEYEMRNLNSVA, QMTTRES, QQYHRLPLS: 0.43, 0.09, 0.10, 0.13, 0.37, 0.44 (controls 2 of 18).
KFSQSVMYMSSVYNSVA, QMSTRAE, QQYHRLPLS: 0.68, 0.34, 0.32, 0.32, 0.38, 0.44 (controls 1 of 18).
TIAQSMLYLSNLKNSIA, QAETREP, QQYHRLPIS: 0.93, 0.40, 1.71, 1.58, 0.68, 1.61 (controls 0 of 18).
KVSDMSAFLSRNRNSVA, DNSTRGS, QQYHRLPLS: 1.66, 1.37, 0.44, 0.68, 1.43, 0.75 (controls 1 of 18).
KLGGVTSYEMQTKNSVA, QMTTRES, QQYHRLPLS: 0.88, 0.42, 0.43, 0.18, 0.35, 0.74 (controls 0 of 18).
MISDLTMYGLRNVNSVA, DLSMRGS, QQYDRLPLS: 0.47, 0.38, 0.21, -0.18, 0.25, 0.40 (controls 1 of 18).
TIGSGTNGEKFQSNSVA, QASTREE, QQYHRLPLS: 0.14, -0.10, 0.27, -0.04, 0.29, 0.41 (controls 3 of 18).
KLSVSWLFETIEKNSVA, ERSTRES, QDYNRLPLS: nd, 1.86, nd, 1.81, 1.45, 2.25 (controls 3 of 18).
HISQSVGVTSRNKNSVA, ENSTRED, QQYDRLPLS: nd, nd, 1.76, 1.75, 1.78, 2.16 (controls 0 of 18).
KISQMVNYESTHVNAVA, QMSTREE, QQYFRLPLS: 0.52, 0.25, -0.08, -0.06, -0.09, 0.26 (controls 1 of 18).

Repeated from above, the 5 best binders with a signal in all replicates:

| CDR-L1 | CDR-L2 | CDR-L3 | log10 Kd (nM) by replicate | empty controls |
|---|---|---|---|---|
| TISDVMHMESRNVNNVA | DLVKREK | QQYHRLPLS | -0.38, -0.54, -0.78, -0.74, -0.52, -0.54 | 1 of 18 |
| KITGMWTFENRNRNNIA | EESTRED | QSYHRLPLS | 0.24, 0.02, -0.22, -0.17, -0.08, 0.30 | 1 of 18 |
| TIGPMLTTESRNKNSVA | GMQTRES | QQYHRLPLS | 0.11, -0.06, -0.08, 0.17, 0.07, 0.09 | 0 of 18 |
| KISQLVNFEGKGKNSVA | QMSTRES | QQYDRLPLS | 0.09, 0.07, 0.13, -0.08, 0.05, 0.33 | 0 of 18 |
| KISQMVNYESTHVNAVA | QMSTREE | QQYFRLPLS | 0.52, 0.25, -0.08, -0.06, -0.09, 0.26 | 1 of 18 |

Data: MIT Lincoln Laboratory AlphaSeq set, Li et al. 2023, doi:10.1038/s41467-023-39022-2, as distributed in FLAb.